This note sets out measurements from ChEMBL document CHEMBL1140747, “Discovery of potent and selective dipeptidyl peptidase IV inhibitors derived from beta-aminoamides bearing subsituted triazolopiperazines” (J Med Chem, 2008).

Sequences of proteins named here, by UniProt entry; tags and fusion partners are left off. A change or cut given only in a name is not applied to a line headed by its entry.
UniProt P28843: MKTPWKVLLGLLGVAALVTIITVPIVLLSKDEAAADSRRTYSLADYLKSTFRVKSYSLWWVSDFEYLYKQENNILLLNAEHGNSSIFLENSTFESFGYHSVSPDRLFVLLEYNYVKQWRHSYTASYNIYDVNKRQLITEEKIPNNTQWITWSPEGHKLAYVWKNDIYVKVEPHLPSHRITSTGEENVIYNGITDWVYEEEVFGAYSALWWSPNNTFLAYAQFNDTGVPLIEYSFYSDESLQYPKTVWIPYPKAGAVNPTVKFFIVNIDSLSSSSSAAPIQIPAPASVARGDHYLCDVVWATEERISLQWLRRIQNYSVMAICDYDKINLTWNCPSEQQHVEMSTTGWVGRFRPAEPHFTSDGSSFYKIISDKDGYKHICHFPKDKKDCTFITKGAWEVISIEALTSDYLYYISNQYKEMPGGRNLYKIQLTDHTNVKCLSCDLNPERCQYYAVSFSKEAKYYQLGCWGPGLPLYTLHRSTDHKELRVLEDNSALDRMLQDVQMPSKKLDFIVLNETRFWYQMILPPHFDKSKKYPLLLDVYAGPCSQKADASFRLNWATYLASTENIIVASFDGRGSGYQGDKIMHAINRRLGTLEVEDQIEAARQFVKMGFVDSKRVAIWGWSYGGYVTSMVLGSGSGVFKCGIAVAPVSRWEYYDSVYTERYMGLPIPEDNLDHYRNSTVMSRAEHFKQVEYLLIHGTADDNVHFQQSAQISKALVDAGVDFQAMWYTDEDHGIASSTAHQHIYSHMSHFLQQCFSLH

This experiment addresses Dipeptidyl peptidase 4 (Mus musculus, UniProt P28843).

The IC50 is the concentration at which inhibition is half-maximal. In turn, `Cl.N[C@@H](CC(=O)N1CCn2c(nnc2C(F)(F)F)C1)Cc1cc(F)c(F)cc1F` had an IC50 of 0.069 µM.
